System: Streptococcus Pheumoniae 5979
Experiment: in vitro antibacterial MIC, agar dilution
Assay type: cell-based
Conditions: organism code ZZ; 35-37° C., 20 to 24 hours; unit assumed
Method: Representative compounds of the present invention were assayed in vitro for antibacterial activity as follows: Twelve petri dishes containing successive aqueous dilutions of the test compound mixed with 10 mL of sterilized Brain Heart Infusion (BHI) agar (Difco 0418-01-5) were prepared. Each plate was inoculated with 1:100 (or 1:10 for slow-growing strains, such as Micrococcus and Streptococcus) dilutions of up to 32 different microorganisms, using a Steers replicator block. The inoculated plates were incubated at 35-37° C. for 20 to 24 hours. In addition, a control plate, using BHI agar containing no test compound, was prepared and incubated at the beginning and end of each test.
An additional plate containing a compound having known susceptibility patterns for the organisms being tested and belonging to the same antibiotic class as the test compound was also prepared and incubated as a further control, as well as to provide test-to-test comparability. Erythromycin A was used for this purpose.
After incubation, each plate was visually inspected. The minimum inhibitory concentration (MIC) was defined as the lowest concentration of drug yielding no growth, a slight haze, or sparsely isolated colonies on the inoculum spot as compared to the growth control.

In the case of `CC[C@H]1OC(=O)[C@H](C)[C@@H](O[C@H]2C[C@@](C)(OC)[C@@H](O)[C@H](C)O2)[C@H](C)[C@@H](O[C@@H]2O[C@H](C)C[C@H](N(C)C)[C@H]2O)[C@](C)(O)C[C@@H](C)C(=O)[C@H](C)[C@@H](O)[C@]1(C)O` [Ery. A, Erythromycin A, reference compound], the MIC is reported as > 128 µg/mL.

Source: patent US6046171A, “6,11-bridged erythromycin derivatives” (priority 1998, dated 2000)
